Test system: chronic obstructive pulmonary disease
Conditions: person, COPD, diabetes; 0.0003 mg sublingual drop four times daily

In the case of poly(dA):poly(dT), the reported improvement is reported as “easier breathing, increased ability to carry out normal, everyday activities, and improved quality of life”.

From US20030032614A1, “Method of treating respiratory distress using synthetic polynucleic acids” (priority 1995, published 2003)
